# Laboratory results published in patent US20170319669A1, “METHOD OF ENHANCING VIRAL-MEDIATED GENE DELIVERY” (Wayne State University, priority 2016, published 2017).
# Tested on: retina (bipolar cell layer)
structure (smiles),measurement,setting,value
COc1cccc2c1C(=O)c1c(O)c3c(c(O)c1C2=O)C[C@@](O)(C(=O)CO)C[C@@H]3O[C@H]1C[C@H](N)[C@H](O)[C@H](C)O1 [doxorubicin],"cytotoxicity (thinning of the retinas, decreased number of mCherry-expressing bipolar cells)","doxorubicin at the concentration of 2000M (so in the source), intravitreal, mice",produced cytotoxicity
same,bipolar cell layer appearance in retinal vertical sections,"three months after co-injection, high DOX concentrations, representative images",appears thinner
same,thickness of bipolar cell layer vs control,"three months after virus injection, co-injection of DOX at 300 or 500 μM",statistically thinner than that of control
